According to patent publication US10499641B2 (priority 2010, dated 2019):

Conditions: LC-MS; for logp [a]: acidic range, pH 2.7, 0.1% aqueous formic acid and acetonitrile

| SMILES | logp [a] | logp [b] (neutral range, pH 7.8, 0.001 molar aqueous ammonium hydrogencarbonate and acetonitrile) |
| --- | --- | --- |
| CCON=Cc1ccccc1C1CC(c2csc(C3CCN(C(=O)Cn4nc(C(F)F)cc4C(F)F)CC3)n2)=NO1 (mixture of isomers) [Example I-27] | 3.91[a] | – |
| CC(=NOC(C)C)c1ccccc1C1CC(c2csc(C3CCN(C(=O)Cn4nc(C(F)F)cc4C(F)F)CC3)n2)=NO1 (mixture of isomers) [Example I-28] | 4.33[a] | – |
| CCON=C(C)c1cccc(C2CC(c3csc(C4CCN(C(=O)Cn5nc(C(F)F)cc5C(F)F)CC4)n3)=NO2)c1 (mixture of isomers) [Example I-5] | 3.92[a] | – |
| CC(=NOC(C)C)c1cccc(C2CC(c3csc(C4CCN(C(=O)Cn5nc(C(F)F)cc5C(F)F)CC4)n3)=NO2)c1 (mixture of isomers) [Example I-20] | 4.32[a] | – |
| CC(C)ON=Cc1cccc(C2CC(c3csc(C4CCN(C(=O)Cn5nc(C(F)F)cc5C(F)F)CC4)n3)=NO2)c1 (mixture of isomers) [Example I-6] | 4.06[a] | – |
| CCON=Cc1cccc(C2CC(c3csc(C4CCN(C(=O)Nc5cc(Cl)ccc5C)CC4)n3)=NO2)c1 (mixture of isomers) [Example I-12] | 4.06[a] | – |
| CON=Cc1cccc(C2CC(c3csc(C4CCN(C(=O)Cn5nc(C(F)(F)F)cc5C)CC4)n3)=NO2)c1 (mixture of isomers) [Example I-15] | 3.45[a] | – |
| CC(C)(C)OC(=O)Nc1ccc(C2CC(c3csc(C4CCN(C(=O)Cn5nc(C(F)F)cc5C(F)F)CC4)n3)=NO2)cc1 (stereo not shown) [Example I-17, tert-Butyl (4-{3-[2-(1-{[3,5-bis(difluoromethyl)-1H-pyrazol-1-yl]acetyl}piperidin-4-yl)-1,3-thiazol-4-yl]-4,5-dihydro-1,2-oxazol-5-yl}phenyl)carbamate] | 3.45[a], | – |
| CC(=O)Nc1ccc(C2CC(c3csc(C4CCN(C(=O)Cn5nc(C(F)F)cc5C(F)F)CC4)n3)=NO2)cc1 (stereo not shown) [Example I-25] | – | 2.24[b] |
| CCON=Cc1cccc(C2CC(c3csc(C4CCN(C(=O)Cn5nc(C(F)F)cc5C(F)F)CC4)n3)=NO2)c1 (mixture of isomers) [Example I-24] | 3.71[a] | – |
| Cc1cc(C(F)(F)F)nn1CC(=O)N1CCC(c2nc(C3=NOC(c4ccccc4C=NOC(C)C)C3)cs2)CC1 (mixture of isomers) [Example I-39] | 4.37[a] | – |
| CON=Cc1cccc(C2CC(c3csc(C4CCN(C(=O)Cn5nc(C(F)F)cc5C(F)F)CC4)n3)=NO2)c1 (mixture of isomers) [Example I-16] | 3.38[a] | – |
| Cc1cc(C(F)(F)F)nn1CC(=O)N1CCC(c2nc(C3=NOC(c4cccc(C=NOC(C)C)c4)C3)cs2)CC1 (mixture of isomers) [Example I-8] | 4.15[a] | – |
| Cc1ccc(Cl)cc1NC(=O)N1CCC(c2nc(C3=NOC(c4ccccc4C=NO)C3)cs2)CC1 (mixture of isomers) [Example I-36] | 3.05[a] | – |
| CON=Cc1ccccc1C1CC(c2csc(C3CCN(C(=O)Nc4cc(Cl)ccc4C)CC3)n2)=NO1 (stereo not shown) [Example I-41, N-(5-Chloro-2-methylphenyl)-4-[4-(5-{2-[(methoxyimino)methyl]phenyl}-4,5-dihydro-1,2-oxazol-3-yl)-1,3-thiazol-2-yl]piperidine-1-carboxamide] | 3.95[a] | – |
| CON=C(C)c1ccccc1C1CC(c2csc(C3CCN(C(=O)Cn4nc(C(F)(F)F)cc4C)CC3)n2)=NO1 (mixture of isomers) [Example I-31] | 3.73[a] | – |
| O=C(Cn1nc(C(F)F)cc1C(F)F)N1CCC(c2nc(C3=NOC(c4ccccc4C=NO)C3)cs2)CC1 (mixture of isomers) [Example I-4] | 2.77[a] | – |

| SMILES | logp [a] | logp [b] (neutral range, pH 7.8, 0.001 molar aqueous ammonium hydrogencarbonate and acetonitrile) |
| --- | --- | --- |
| O=C(Cn1nc(C(F)F)cc1C(F)F)N1CCC(c2nc(C3=NOC(c4ccccc4C=NO)C3)cs2)CC1 (mixture of isomers) [Example I-35] | 3.01[a] | – |
| CON=C(C)c1ccccc1C1CC(c2csc(C3CCN(C(=O)Cn4nc(C(F)F)cc4C(F)F)CC3)n2)=NO1 (mixture of isomers) [Example I-32] | 3.64[a] | – |
| Cc1cc(C(F)(F)F)nn1CC(=O)N1CCC(c2nc(C3=NOC(c4ccccc4C=NO)C3)cs2)CC1 (mixture of isomers) [Example I-38] | 2.85[a] | – |
| Cc1ccc(Cl)cc1NC(=O)N1CCC(c2nc(C3=NOC(c4ccccc4C=NOC(C)C)C3)cs2)CC1 (mixture of isomers) [Example I-37] | 4.67[a] | – |
| Cc1ccc(Cl)cc1NC(=O)N1CCC(c2nc(C3=NOC(c4cccc(C=NO)c4)C3)cs2)CC1 (mixture of isomers) [Example I-14] | 2.79[a] | – |
| CON=C(C)c1cccc(C2CC(c3csc(C4CCN(C(=O)Nc5cc(Cl)ccc5C)CC4)n3)=NO2)c1 (mixture of isomers) [Example I-23] | 3.99[a] | – |
| Cc1cc(C(F)(F)F)nn1CC(=O)N1CCC(c2nc(C3=NOC(c4cccc(C=NO)c4)C3)cs2)CC1 (mixture of isomers) [Example I-10] | 2.63[a] | – |
| CON=Cc1cccc(C2CC(c3csc(C4CCN(C(=O)Nc5cc(Cl)ccc5C)CC4)n3)=NO2)c1 (mixture of isomers) [Example I-19] | 3.76[a] | – |
| CC(=NO)c1cccc(C2CC(c3csc(C4CCN(C(=O)Cn5nc(C(F)F)cc5C(F)F)CC4)n3)=NO2)c1 (mixture of isomers) [Example I-18] | 2.71[a] | – |
| CON=Cc1ccccc1C1CC(c2csc(C3CCN(C(=O)Cn4nc(C(F)F)cc4C(F)F)CC3)n2)=NO1 (stereo not shown) [Example I-26, 2-{3-[2-(1-{[3,5-Bis(difluoromethyl)-1H-pyrazol-1-yl]acetyl}piperidin-4-yl)-1,3-thiazol-4-yl]-4,5-dihydro-1,2-oxazol-5-yl}benzaldehyde O-methyloxime] | 3.59[a] | – |
| O=C(Cn1nc(C(F)F)cc1C(F)F)N1CCC(c2nc(C3=NOC(c4cccc(C=NO)c4)C3)cs2)CC1 (mixture of isomers) [Example I-22] | 2.57[a] | – |
| CC(=NOC(C)C)c1cccc(C2CC(c3csc(C4CCN(C(=O)Cn5nc(C(F)(F)F)cc5C)CC4)n3)=NO2)c1 (mixture of isomers) [Example I-9] | 4.46[a] | – |
| CCON=Cc1ccccc1C1CC(c2csc(C3CCN(C(=O)Nc4cc(Cl)ccc4C)CC3)n2)=NO1 (mixture of isomers) [Example I-33] | 4.25[a] | – |
| C[Si](C)(C)C#CCOc1ccccc1C1CC(c2csc(C3CCN(C(=O)Cn4nc(C(F)F)cc4C(F)F)CC3)n2)=NO1 (stereo not shown) [Example I-1, 2-[3,5-Bis(difluoromethyl)-1H-pyrazol-1-yl]-1-(4-{4-[5-(2-{[3-(trimethylsilyl)prop-2-yn-1-yl]oxy}phenyl)-4,5-dihydro-1,2-oxazol-3-yl]-1,3-thiazol-2-yl]piperidin-1-yl}ethanone] | 4.71[a], | – |
| CON=C(C)c1cccc(C2CC(c3csc(C4CCN(C(=O)Cn5nc(C(F)F)cc5C(F)F)CC4)n3)=NO2)c1 (mixture of isomers) [Example I-21] | 3.55[a] | – |
| CC(=NOC(C)C)c1ccccc1C1CC(c2csc(C3CCN(C(=O)Cn4nc(C(F)(F)F)cc4C)CC3)n2)=NO1 (mixture of isomers) [Example I-30] | 4.44[a] | – |
| CC(C)ON=Cc1ccccc1C1CC(c2csc(C3CCN(C(=O)Cn4nc(C(F)F)cc4C(F)F)CC3)n2)=NO1 (mixture of isomers) [Example I-42] | 4.25[a] | – |
